Test results: PubChem BioAssay AID504332 (National Center for Advancing Translational Sciences (NCATS), 2011)
The entries are a selection whose mix differs from that of the whole data set. Inconclusive results are not listed. Active and inactive are the calls of the source. Calls follow the shape of the dose curve; as a rule, active = well fitted inhibition curve with a large enough effect; inconclusive = small, poorly fitted or top-dose-only effect; inactive = no such curve, though single readings can be large or run the other way.

By UniProt entry, the sequences of proteins in these tests, tags left out. Where a name states a change or a piece, a line headed by the entry shows the natural chain unless it says otherwise.
UniProt Q96KQ7: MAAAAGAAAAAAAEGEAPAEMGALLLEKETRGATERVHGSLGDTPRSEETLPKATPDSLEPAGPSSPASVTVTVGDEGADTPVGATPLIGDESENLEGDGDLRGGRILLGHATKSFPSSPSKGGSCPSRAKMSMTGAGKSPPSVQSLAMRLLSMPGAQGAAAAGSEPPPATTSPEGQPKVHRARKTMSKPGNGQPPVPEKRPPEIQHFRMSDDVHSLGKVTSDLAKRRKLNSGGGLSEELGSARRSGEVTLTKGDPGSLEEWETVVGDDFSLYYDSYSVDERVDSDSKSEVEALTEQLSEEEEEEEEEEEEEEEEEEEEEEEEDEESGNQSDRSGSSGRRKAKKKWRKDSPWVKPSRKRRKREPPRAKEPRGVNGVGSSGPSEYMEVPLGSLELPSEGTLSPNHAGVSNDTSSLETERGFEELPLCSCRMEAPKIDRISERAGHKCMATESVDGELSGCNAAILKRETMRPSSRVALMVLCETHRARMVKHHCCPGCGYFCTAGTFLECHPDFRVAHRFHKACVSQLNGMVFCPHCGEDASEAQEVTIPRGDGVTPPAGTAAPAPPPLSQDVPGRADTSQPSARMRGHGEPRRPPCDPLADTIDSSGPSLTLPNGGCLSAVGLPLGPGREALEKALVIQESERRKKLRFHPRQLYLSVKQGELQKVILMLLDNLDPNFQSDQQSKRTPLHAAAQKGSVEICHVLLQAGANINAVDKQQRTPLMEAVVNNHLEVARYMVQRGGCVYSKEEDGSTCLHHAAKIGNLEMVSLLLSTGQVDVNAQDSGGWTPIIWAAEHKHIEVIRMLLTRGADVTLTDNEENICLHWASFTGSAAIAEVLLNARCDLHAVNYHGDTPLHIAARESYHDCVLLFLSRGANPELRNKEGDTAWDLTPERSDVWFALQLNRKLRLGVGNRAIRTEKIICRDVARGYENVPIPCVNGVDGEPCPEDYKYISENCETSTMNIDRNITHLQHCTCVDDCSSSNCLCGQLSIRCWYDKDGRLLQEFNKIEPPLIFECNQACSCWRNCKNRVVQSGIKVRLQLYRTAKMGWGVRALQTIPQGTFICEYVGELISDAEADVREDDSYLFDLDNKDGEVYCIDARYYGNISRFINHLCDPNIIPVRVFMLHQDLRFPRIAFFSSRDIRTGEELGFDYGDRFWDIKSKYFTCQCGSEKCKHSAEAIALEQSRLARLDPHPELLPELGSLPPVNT

target: Histone-lysine N-methyltransferase EHMT2 (Homo sapiens) (UniProt Q96KQ7); test: qHTS Assay for Inhibitors of Histone Lysine Methyltransferase G9a; conditions: G9a H3K9 monomethylation, AlphaScreen, 2 h; series mostly up to 59 µM; also: nearly all actives have a fitted effect of over 75% in size
Potency is read from the fitted curve at half-maximal effect.

Potency, inactive:
COc1ccc2cc([C@@H](C)C(=O)O)ccc2c1
Cc1cnc(C(=O)NCCc2ccc(S(=O)(=O)NC(=O)NC3CCCCC3)cc2)cn1
CCCCc1oc2ccccc2c1C(=O)c1cc(I)c(OCCN(CC)CC)c(I)c1
O=C(O)COCCN1CCN(C(c2ccccc2)c2ccc(Cl)cc2)CC1 (stereo not drawn)
COc1ccc2cc([C@H](C)C(=O)O)ccc2c1
O=C(O)COCCN1CCN([C@@H](c2ccccc2)c2ccc(Cl)cc2)CC1
COc1ccc2cc(C(C)C(=O)O)ccc2c1 (stereo not drawn)

Potency, active:
Cc1ccc(-c2csc(Nc3ccccc3)[n+]2CCc2ccccc2)cc1 22.4 µM
CC1(C)N([O-])c2cc([N+](=O)[O-])ccc2[N+]1=O 1.58 µM
CC[n+]1c(/C=C/N(C)c2ccccc2)oc2ccc(Cl)cc21 10 µM
Nc1n[nH]c(CO)n1 70.8 µM
CC[n+]1c(/C=C/N(C)c2ccccc2)oc2ccccc21 44.7 µM
Cc1ccc(C2=NCN(c3ccc(C(=O)O)cc3)C(=S)N2)cc1 50.1 µM
